## scFv variants of Ab-91 (heavy chain) against a SARS-CoV-2 spike peptide

From the AlphaSeq antibody data of Engelhart et al. 2022 (doi:10.1038/s41597-022-01779-4), copy in the FLAb collection.

Target peptide (SARS-CoV-2 spike, HR2 region): PDVDLGDISGINAS

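AAYL51 was designed without a model: most single CDR substitutions and a random sample of double and triple ones. The assay is AlphaSeq: two haploid yeast populations carry antibody and antigen on their surface. Binding brings cells together so that they mate, and sequencing counts the barcode pairs among the diploids. Read counts were normalised to the haploid input and turned into Kd by a linear fit to BCL2-family pairs of known affinity, for each replicate. Each pool was mated in three replicate cultures.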

Parent scFv Ab-91: VL joined to VH by a 15-residue (Gly4Ser)3 linker. Changes lie in the heavy chain CDRs alone.
VL: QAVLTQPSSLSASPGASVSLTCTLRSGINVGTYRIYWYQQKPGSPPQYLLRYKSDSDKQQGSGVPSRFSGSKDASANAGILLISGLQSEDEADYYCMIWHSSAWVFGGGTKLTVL
VH: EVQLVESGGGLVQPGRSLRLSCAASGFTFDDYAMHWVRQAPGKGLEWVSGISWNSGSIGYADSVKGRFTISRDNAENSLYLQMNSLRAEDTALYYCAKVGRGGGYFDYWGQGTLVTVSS

Changes read parent residue, position, new residue, counted from the first residue of the VH shown. Affinities are written as log10 Kd with Kd in nM; a lower number is a better binder. A mean of the replicates is given; it leaves out those without a signal. A pair that was not seen in any replicate is written "nd"; this usually means weak binding, but a binder can also be missed. As a blank, each scFv also met three strains without target: over library AAYL51, 21% of these pairings were detected, typically at 4.54 and seldom below 3.26. In this assay the parent's reference entry averaged 1.86; its copy inside this library read 0.88.

D31R+I51T+W53C: 4.67 (3 of 3 replicates).
Y60K+G104A+Y105T: 4.50 (1 of 3 replicates).
F29N+S55G: 3.56 (1 of 3 replicates).
D30V+S55F+G56M: nd (0 of 3 replicates).
I51R+S63I: 5.62 (1 of 3 replicates).
M34G+H35P+G102K: 4.62 (1 of 3 replicates).
N54K+G56S+G103E: 3.32 (3 of 3 replicates).
S55D+Y105K: nd (0 of 3 replicates).
T28L+G104L+Y108K: 4.93 (1 of 3 replicates).
T28C+M34R+S57C: 4.04 (1 of 3 replicates).
I51G+V64L+R101H: 3.81 (2 of 3 replicates).
I51K+G102N+G103D: 5.13 (2 of 3 replicates).
T28D+A61Y+R101I: 3.71 (1 of 3 replicates).
Y32N+G50T+G100D: nd (0 of 3 replicates).
N54D+D62S+G103S: 3.73 (1 of 3 replicates).
G56W+G100Y: 2.71 (3 of 3 replicates).
G104A+Y105F+D107H: 1.71 (3 of 3 replicates).
S63Q+V64L+F106R: nd (0 of 3 replicates).
D31G+M34P+F106M: nd (0 of 3 replicates).
G56T+A61W+V99W: nd (0 of 3 replicates).
A33K+A61L+R101G: nd (0 of 3 replicates).
V64P+G102T+G104L: nd (0 of 3 replicates).
D62V+K65A: 2.52 (3 of 3 replicates).
Y32V+S52L+D62F: nd (0 of 3 replicates).
D62K+G102W+Y105T: nd (0 of 3 replicates).
F29W+Y108S: 2.55 (1 of 3 replicates).
W53H+I58Y+D62V: nd (0 of 3 replicates).
G50W+S57G+Y105P: 4.67 (2 of 3 replicates).
G50L+G100H+Y108N: 5.27 (2 of 3 replicates).
F29Q+I58M+Y108W: 4.36 (1 of 3 replicates).
D30G+A61M: 3.76 (3 of 3 replicates).
H35I+S52P+G103F: 4.73 (1 of 3 replicates).
K65F+G104F+D107P: nd (0 of 3 replicates).
Y32H+H35G: 3.73 (2 of 3 replicates).
D62F+G100S+Y108L: nd (0 of 3 replicates).
T28K+N54W+Y60W: 4.97 (1 of 3 replicates).
F27W+S57R+V99W: 4.62 (1 of 3 replicates).
I58H+V64F+D107S: nd (0 of 3 replicates).
I58W+G104K+F106N: 4.72 (2 of 3 replicates).
D31R+Y105N+F106A: 0.38 (3 of 3 replicates).
G26K+D31A+G50R: 5.56 (2 of 3 replicates).
I51R+G56C+K65Q: nd (0 of 3 replicates).
F29G+A61W+V99T: 5.04 (2 of 3 replicates).

Extract of 7 entries:

changes	log10 Kd (nM), mean	replicates with signal
M34G+H35P+G102K	4.62	1/3
T28L+G104L+Y108K	4.93	1/3
G56W+G100Y	2.71	3/3
I51K+G102N+G103D	5.13	2/3
F29W+Y108S	2.55	1/3
F29N+S55G	3.56	1/3
D31G+M34P+F106M	nd	0/3